Laboratory results published in ChEMBL document CHEMBL4038350 (J Med Chem, 2017).

Protein sequences, listed by entry. Tags and fused reporters are not part of them. Lines headed by an entry give the natural chain unless they say otherwise; changes in a name come on top.
UniProt P33033: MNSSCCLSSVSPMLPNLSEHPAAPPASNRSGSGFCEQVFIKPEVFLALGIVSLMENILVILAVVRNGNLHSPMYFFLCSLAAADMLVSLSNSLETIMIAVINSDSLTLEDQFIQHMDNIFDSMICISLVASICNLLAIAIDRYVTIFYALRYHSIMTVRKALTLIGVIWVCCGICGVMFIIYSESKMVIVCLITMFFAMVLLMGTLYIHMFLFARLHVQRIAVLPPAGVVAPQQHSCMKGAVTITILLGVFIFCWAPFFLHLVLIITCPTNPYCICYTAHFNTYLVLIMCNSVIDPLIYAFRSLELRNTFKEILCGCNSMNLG
UniProt P56450, whole entry: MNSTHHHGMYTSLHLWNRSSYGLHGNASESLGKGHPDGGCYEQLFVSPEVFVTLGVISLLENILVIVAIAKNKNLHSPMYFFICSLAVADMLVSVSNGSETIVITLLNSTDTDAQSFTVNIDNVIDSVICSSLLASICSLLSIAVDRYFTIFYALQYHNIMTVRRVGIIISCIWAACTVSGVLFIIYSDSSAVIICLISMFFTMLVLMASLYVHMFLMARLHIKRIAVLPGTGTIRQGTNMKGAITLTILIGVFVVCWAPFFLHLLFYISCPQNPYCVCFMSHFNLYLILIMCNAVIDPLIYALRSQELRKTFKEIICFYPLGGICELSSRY

Assays:
Format in all cases: functional, cell-based
[1] = biological target: Melanocortin receptor 3 (Mus musculus, UniProt P33033); assay: Agonist activity at mouse melanocortin receptor 3 expressed in HEK293 cells assessed as increase in cAMP accumulation after 2 hrs by AlphaScreen assay
Procedure, shortened: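 Peptide (10−4 to 10−13 M) was added for 2 h at room temperature in the dark. Donor beads and biotin-cAMP in lysis buffer followed for 2 h. The AlphaScreen signal was read. EC50 came from nonlinear least-squares fits, duplicates, at least three independent experiments.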

[2] = biological target: T1, Melanocortin receptor 4 (Mus musculus, UniProt P56450); assay: Agonist activity at mouse melanocortin receptor 4 expressed in HEK293 cells assessed as increase in cAMP accumulation after 2 hrs by AlphaScreen assay
[3] = biological target: T1, Melanocortin receptor 4; assay: Antagonist activity at mouse melanocortin receptor 4 expressed in HEK293 cells assessed as inhibition of NDP-MSH-induced cAMP accumulation after 2 hrs by AlphaScreen assay; conditions: read-out: pA2 (converted)

SMILES	EC50 [1] [µM]	EC50 [2] [µM]	Kb [3] [µM]
C[C@@H]1NC(=O)[C@H](CC(N)=O)NC(=O)[C@H](Cc2ccccc2)NC(=O)[C@H](Cc2ccccc2)NC(=O)[C@H](CCCNC(=N)N)NC(=O)[C@@H]2CCCN2C(=O)[C@H]2CCCN2C(=O)[C@H](Cc2ccccc2)NC1=O	> 100	–	–
C[C@@H]1NC(=O)[C@@H](CN)NC(=O)[C@H](Cc2ccccc2)NC(=O)[C@H](Cc2ccccc2)NC(=O)[C@H](CCCNC(=N)N)NC(=O)[C@@H]2CCCN2C(=O)[C@H]2CCCN2C(=O)[C@H](Cc2ccccc2)NC1=O	–	> 100	–
C[C@@H]1NC(=O)[C@H](CN)NC(=O)[C@H](Cc2ccccc2)NC(=O)[C@H](Cc2ccccc2)NC(=O)[C@H](CCCNC(=N)N)NC(=O)[C@@H]2CCCN2C(=O)[C@H]2CCCN2C(=O)[C@H](Cc2ccccc2)NC1=O	–	> 100	0.002
